Assay results as given in patent publication US20140349970A1 (ABBVIE INC., priority 2009, published 2014).

Target: Syk catalytic domain (aa 356-635 with a C-terminal His-tag) (Homo sapiens, UniProt P43405)
Experiment: In vitro Syk kinase activity measured by trFRET, Syk catalytic domain
Conditions: read-out: Syk IC50
Experimental: In Vitro Syk Kinase Activity Measured by Time-Resolved Fluorescence Resonance Energy Transfer (trFRET)
0.14 nM purified Syk catalytic domain (aa 356-635 with a C-terminal His-tag purified in-house by immobilized metal ion affinity chromatography) was mixed with 0.2 μM peptide substrate (biotin-TYR1, Sequence: Biotin-(Ahx)-GAEEEIYAAFFA-COOH) at varying inhibitor concentrations in reaction buffer: 50 mM MOPSO pH 6.5, 10 mM MgCl2, 2 mM MnCl2, 2.5 mM DTT, 0.01% BSA, 0.1 mM Na3VO4 and 0.001 mM ATP. After about 60 min incubation at rt, the reaction was quenched by addition of EDTA (final concentration: 100 mM) and developed by addition of revelation reagents (final approximate concentrations: 30 mM HEPES pH 7.0, 0.06% BSA, 0.006% Tween-20, 0.24 M KF, 80 ng/mL PT66K (europium labeled anti-phosphotyrosine antibody cat #61T66KLB Cisbio, Bedford, Mass.) and 0.6 μg/mL SAXL (Phycolink streptavidin-allophycocyanin acceptor, cat #PJ255, Prozyme, San Leandro, Calif.). The developed reaction was incubated in the dark either at about 4° C. for about 14 h or for about 60 min at rt, then read via a time-resolved fluorescence detector (Rubystar, BMG) using a 337 nm laser for excitation and monitoring emission wavelengths at 665 nm. Within the linear range of the assay, the observed signal at 665 nm was directly related to phosphorylated product and can be used to calculate the IC50 values. […]

## COc1ccc2c(c1)c(-c1cc3c(ncc4cnc(C(C)(C)O)n43)[nH]1)cn2C
  IC50: < 0.1 µM
